# Test results: paper PMC3691886
# B1: Z α1-antitrypsin [not stated] / itself (parent)
# chain: EDPQGDAAQKTDTSHHDQDHPTFNKITPNLAEFAFSLYRQLAHQSNSTNIFFSPVSIATAFAMLSLGTKADTHDEILEGLNFNLTEIPEAQIHEGFQELLRTLNQPDSQLQLTTGNGLFLSEGLKLVDKFLEDVKKLYHSEAFTVNFGDTEEAKKQINDYVEKGTQGKIVDLVKELDRDTVFALVNYIFFKGKWERPFEVKDTEEEDFHVDQVTTVKVPMMKRLGMFNIQHCKKLSSWVLLMKYLGNATAIFFLPDEGKLQHLENELTHDIITKFLENEDRRSASLHLPKLSITGTYDLKSVLGQLGITKVFSNGADLSGVTEEAPLKLSKAVHKAVLTIDKKGTEAAGAMFLEAIPMSIPPEVKFNKPFVFLMIEQNTKSPLFMGKVVNPTQK
# Variants of: B1
# Experiment: sandwich ELISA of intracellular polymers with polymer-specific 2C1 monoclonal antibody (COS-7 cell lysates)
# Settings: COS-7 cells transiently transfected, serum-free medium for 24 h before lysis, n=4, parent: 1, read off a plot
row,Variant,ratio to parent
1,chain 1 A355D,0.47
2,chain 1 G349D M351D,0.74
3,chain 1 L353D,1.3
4,chain 1 L353D A355D,0.44
5,chain 1 P357D S359D,0.98
6,chain 1 T345D A347D,0.08
